## Permeability data for macrocyclic peptides

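Conditions beyond the assay type are not listed; see the original paper. The list need not hold all peptides of the study. Peptides that the database sets to -10, its floor, are left out.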

PAMPA is the parallel artificial membrane permeability assay, which has no cells and reads passive diffusion.
P is given in units of 10^-6 cm/s (from log10 values with two decimals); larger means faster passage.

| structure (SMILES) | PAMPA (10^-6 cm/s) |
|---|---|
| CCCN1CC(=O)N[C@@H](CC(C)C)C(=O)N(Cc2ccccc2)CC(=O)N2CCC[C@@H]2C(=O)N(C)[C@@H](CC(C)C)C(=O)N[C@@H](Cc2ccccc2)C(=O)N2CCC[C@H]2C1=O | 2.8 |
| CC(C)C[C@@H]1NC(=O)[C@@H](CC(C)C)NC(=O)[C@H](C)N(C)C(=O)[C@H](Cc2ccccc2)NC(=O)[C@H](CC(C)C)N(C)C(=O)[C@@H]2CCCN2C1=O | 8.1 |
| CC(C)C[C@@H]1NC(=O)[C@@H](CC(C)C)NC(=O)[C@@H](C)NC(=O)[C@@H]2CCCN2C(=O)[C@H](Cc2ccccc2)NC(=O)CN(Cc2ccccc2)C(=O)[C@@H]2CCCN2C1=O | 0.33 |
| CC(C)C[C@H]1NC(=O)[C@H]2CCCN2C(=O)CN(Cc2ccccc2)C(=O)[C@H](CC(C)C)N(C)C(=O)[C@H](C)NC(=O)[C@H]2CCCN2C(=O)[C@H](Cc2ccccc2)NC1=O | 0.71 |
| CC(C)C[C@@H]1C(=O)N[C@@H](Cc2ccccc2)C(=O)N2CCC[C@@H]2C(=O)N(C)[C@H](C)C(=O)N(C)[C@@H](CC(C)C)C(=O)N[C@@H](Cc2ccccc2)CC(=O)N2CCC[C@@H]2C(=O)N1C | 1.6 |
| CCCN1CC(=O)N[C@@H](CC(C)C)C(=O)N(C)[C@@H](CC(C)C)C(=O)N2CCC[C@H]2C(=O)N[C@H](CC(C)C)C(=O)N[C@@H](Cc2ccccc2)C(=O)N2CCC[C@@H]2C1=O | 0.71 |
| CCCN1CC(=O)N(C)[C@H](CC(C)C)C(=O)N(C)[C@H](CC(C)C)C(=O)N2CCC[C@@H]2C(=O)N(C)[C@H](CC(C)C)C(=O)N[C@@H](Cc2ccccc2)C(=O)N2CCC[C@@H]2C1=O | 4.2 |
| CCCN1CC(=O)N[C@H](CC(C)C)C(=O)N[C@H](CC(C)C)C(=O)N2CCC[C@@H]2C(=O)N[C@H](CC(C)C)C(=O)N[C@@H](Cc2ccccc2)C1=O | 12 |
| CCCN1CC(=O)N[C@H](CC(C)C)C(=O)N[C@H](CC(C)C)C(=O)N2CCC[C@@H]2C(=O)N(Cc2ccccc2)CC(=O)N[C@@H](Cc2ccccc2)C(=O)N2CCC[C@@H]2C1=O | 3.2 |
| CC(C)C[C@@H]1NC(=O)[C@H](C)NC(=O)[C@@H]2CCCN2C(=O)[C@H](Cc2ccccc2)NC(=O)[C@@H](CC(C)C)NC(=O)[C@@H]2CCCN2C(=O)[C@H](CC(C)C)NC1=O | 0.66 |
| CC(C)C[C@@H]1NC(=O)[C@@H](CC(C)C)NC(=O)[C@@H](C)N(C)C(=O)[C@@H]2CCCN2C(=O)[C@H](Cc2ccccc2)NC(=O)[C@@H](CC(C)C)N(C)C(=O)[C@H]2CCCN2C1=O | 3.9 |
| CC(C)C[C@H]1NC(=O)C[C@H](Cc2ccccc2)NC(=O)[C@H]2CCCN2C(=O)[C@H](Cc2ccccc2)NC(=O)[C@@H](CC(C)C)NC(=O)[C@H]2CCCN2C(=O)C[C@H](Cc2ccccc2)NC1=O | 1.3 |
| CC(C)C[C@@H]1NC(=O)[C@H](C)NC(=O)[C@H](Cc2ccccc2)NC(=O)[C@@H](CC(C)C)NC(=O)[C@H]2CCCN2C(=O)[C@H](CC(C)C)N(C)C1=O | 0.3 |
| CC(C)C[C@H]1NC(=O)[C@H]2CCCN2C(=O)[C@@H](CC(C)C)NC(=O)[C@@H](CC(C)C)NC(=O)[C@H](C)N(C)C(=O)[C@H](Cc2ccccc2)NC1=O | 8.7 |
| CC(C)C[C@@H]1NC(=O)[C@@H]2CCCN2C(=O)[C@H](CC(C)C)NC(=O)CN(Cc2ccccc2)C(=O)C[C@H](Cc2ccccc2)NC(=O)[C@H]2CCCN2C(=O)[C@H](Cc2ccccc2)NC1=O | 1.4 |
| CC(C)C[C@H]1C(=O)N(C)[C@@H](CC(C)C)C(=O)N2CCC[C@@H]2C(=O)N(C)[C@@H](CC(C)C)C(=O)N[C@@H](Cc2ccccc2)C(=O)N2CCC[C@H]2C(=O)N[C@@H](Cc2ccccc2)CC(=O)N1C | 3.2 |
| CC(C)C[C@@H]1NC(=O)[C@@H](CC(C)C)NC(=O)C[C@H](Cc2ccccc2)NC(=O)[C@@H]2CCCN2C(=O)[C@H](Cc2ccccc2)NC(=O)[C@H](CC(C)C)N(C)C(=O)[C@H]2CCCN2C1=O | 2.8 |
| CC(C)C[C@H]1NC(=O)[C@@H](C)N(C)C(=O)[C@@H]2CCCN2C(=O)[C@H](Cc2ccccc2)NC(=O)CN(Cc2ccccc2)C(=O)[C@H]2CCCN2C(=O)[C@H](CC(C)C)N(C)C1=O | 4 |
| CC(C)C[C@@H]1NC(=O)[C@@H](C)NC(=O)[C@H]2CCCN2C(=O)[C@H](Cc2ccccc2)NC(=O)[C@@H](CC(C)C)N(C)C(=O)[C@@H]2CCCN2C(=O)CN(Cc2ccccc2)C1=O | 1.8 |
| CC(C)C[C@@H]1NC(=O)[C@H](CC(C)C)N(C)C(=O)[C@@H](C)NC(=O)[C@H]2CCCN2C(=O)[C@H](Cc2ccccc2)NC(=O)[C@@H](CC(C)C)N(C)C(=O)[C@H]2CCCN2C1=O | 4.2 |
| CC(C)C[C@@H]1NC(=O)[C@@H](CC(C)C)NC(=O)[C@H](C)NC(=O)[C@H](Cc2ccccc2)NC(=O)CN(Cc2ccccc2)C(=O)[C@H]2CCCN2C1=O | 2.8 |
| CCCN1CC(=O)N[C@H](CC(C)C)C(=O)N[C@@H](CC(C)C)C(=O)N2CCC[C@H]2C(=O)N(C)[C@@H](CC(C)C)C(=O)N[C@@H](Cc2ccccc2)C1=O | 10 |

Repeated from above, the 3 entries with the highest PAMPA:

| structure (SMILES) | PAMPA (10^-6 cm/s) |
|---|---|
| CCCN1CC(=O)N[C@H](CC(C)C)C(=O)N[C@H](CC(C)C)C(=O)N2CCC[C@@H]2C(=O)N[C@H](CC(C)C)C(=O)N[C@@H](Cc2ccccc2)C1=O | 12 |
| CCCN1CC(=O)N[C@H](CC(C)C)C(=O)N[C@@H](CC(C)C)C(=O)N2CCC[C@H]2C(=O)N(C)[C@@H](CC(C)C)C(=O)N[C@@H](Cc2ccccc2)C1=O | 10 |
| CC(C)C[C@H]1NC(=O)[C@H]2CCCN2C(=O)[C@@H](CC(C)C)NC(=O)[C@@H](CC(C)C)NC(=O)[C@H](C)N(C)C(=O)[C@H](Cc2ccccc2)NC1=O | 8.7 |

Values of Townsend et al. 2020, doi:10.26434/chemrxiv.13335941.v1, as listed in CycPeptMPDB.